The chains behind the UniProt entries cited, without tags or fusion partners. A line that says so, or that is headed by a name, gives the form on record, which may keep a tag or linker. Residues count along the entry.
UniProt Q6SZW1, 28-724 with tags or gaps limits assumed: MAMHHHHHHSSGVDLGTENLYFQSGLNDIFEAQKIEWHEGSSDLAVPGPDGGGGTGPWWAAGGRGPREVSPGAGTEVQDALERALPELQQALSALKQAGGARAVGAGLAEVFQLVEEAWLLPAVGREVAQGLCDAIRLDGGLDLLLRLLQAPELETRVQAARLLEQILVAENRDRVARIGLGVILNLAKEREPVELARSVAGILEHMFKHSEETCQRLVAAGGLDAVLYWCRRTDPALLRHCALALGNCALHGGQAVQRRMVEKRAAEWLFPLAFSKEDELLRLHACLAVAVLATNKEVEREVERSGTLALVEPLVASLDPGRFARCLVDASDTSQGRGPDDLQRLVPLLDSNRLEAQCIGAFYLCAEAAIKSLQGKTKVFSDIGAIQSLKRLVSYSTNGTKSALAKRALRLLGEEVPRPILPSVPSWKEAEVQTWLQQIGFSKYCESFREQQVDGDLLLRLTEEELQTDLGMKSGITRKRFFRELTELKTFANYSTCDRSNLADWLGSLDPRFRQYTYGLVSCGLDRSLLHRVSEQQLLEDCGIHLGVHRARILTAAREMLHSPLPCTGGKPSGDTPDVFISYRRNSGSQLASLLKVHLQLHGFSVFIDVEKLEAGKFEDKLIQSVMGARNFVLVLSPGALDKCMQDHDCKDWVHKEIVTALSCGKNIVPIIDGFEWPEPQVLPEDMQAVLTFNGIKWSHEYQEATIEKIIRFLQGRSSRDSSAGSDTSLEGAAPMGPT

In patent publication US12043613B2, “Inhibitors of SARM1” (Disarm Therapeutics, Inc., priority 2020, dated 2024):

Molecular target: SARM1 (ARM-SAM-TIR, full length SARM1) (Homo sapiens, UniProt Q6SZW1)
Conditions: read-out: SARM1 IC50; ARM-SAM-TIR lysate 5 μg/mL from NRK1-HEK293T cells, 2 h pre-incubation, 5 uM NAD+, 2 hr room temperature

`O=C1C(Cc2ccc(Cl)c(F)c2)CCCN1c1nc(-c2ccncc2)n[nH]1` (single isomer, unassigned) and `O=C1C(Cc2ccc(Cl)c(F)c2)CCN1c1cc(-c2ccncc2)n[nH]1` (single isomer, unassigned) cannot be ordered by IC50: less than 0.05 µM for the first, less than 0.05 µM for the second.

`O=C1C(Cc2ccc(Cl)nc2)CCN1c1[nH]nc(-c2ccncc2)c1F` (single isomer, unassigned) and `O=C1C(Cc2ccc(Cl)nc2)CCN1c1cc(-c2ccncc2)n[nH]1` (single isomer, unassigned) cannot be ordered by IC50: less than 0.05 µM for the first, less than 0.05 µM for the second.

Compared with `N#Cc1c(-c2ccncc2)n[nH]c1N1CCC(Cc2ccc(F)c(F)c2)C1=O` (single isomer, unassigned), `O=C1C(Cc2ccc(Cl)cc2)CCN1c1cc(-c2ccncc2)n[nH]1` (single isomer, unassigned) is lower in IC50: greater than 1 µM for the first, less than 0.05 µM for the second. The second is the more potent here.
